Consider one compound from patent US20240124464A1, “SUBSTITUTED FUSED BICYCLIC COMPOUND AS KINASE INHIBITOR AND USE THEREOF” (IMPACT THERAPEUTICS (SHANGHAI), INC, priority 2020, published 2024).

Amino acid sequences for entries named in this document (tags omitted).
UniProt O60285, whole entry: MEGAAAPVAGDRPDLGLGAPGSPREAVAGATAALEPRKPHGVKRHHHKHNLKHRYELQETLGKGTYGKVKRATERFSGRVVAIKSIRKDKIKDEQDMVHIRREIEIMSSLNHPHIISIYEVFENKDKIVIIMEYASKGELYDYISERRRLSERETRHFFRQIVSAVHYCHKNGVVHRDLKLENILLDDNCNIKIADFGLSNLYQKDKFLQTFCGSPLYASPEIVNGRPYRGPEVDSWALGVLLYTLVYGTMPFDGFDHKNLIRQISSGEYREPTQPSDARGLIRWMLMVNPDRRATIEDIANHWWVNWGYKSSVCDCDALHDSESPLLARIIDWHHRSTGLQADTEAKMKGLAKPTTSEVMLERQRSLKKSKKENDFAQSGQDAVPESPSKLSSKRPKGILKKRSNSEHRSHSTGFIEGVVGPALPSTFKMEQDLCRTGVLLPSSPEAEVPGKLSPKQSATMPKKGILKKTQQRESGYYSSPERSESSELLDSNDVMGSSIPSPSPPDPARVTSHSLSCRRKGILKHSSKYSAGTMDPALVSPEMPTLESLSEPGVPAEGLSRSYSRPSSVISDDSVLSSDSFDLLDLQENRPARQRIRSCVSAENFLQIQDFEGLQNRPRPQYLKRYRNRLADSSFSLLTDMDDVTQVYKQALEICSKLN
UniProt Q9H093, whole entry: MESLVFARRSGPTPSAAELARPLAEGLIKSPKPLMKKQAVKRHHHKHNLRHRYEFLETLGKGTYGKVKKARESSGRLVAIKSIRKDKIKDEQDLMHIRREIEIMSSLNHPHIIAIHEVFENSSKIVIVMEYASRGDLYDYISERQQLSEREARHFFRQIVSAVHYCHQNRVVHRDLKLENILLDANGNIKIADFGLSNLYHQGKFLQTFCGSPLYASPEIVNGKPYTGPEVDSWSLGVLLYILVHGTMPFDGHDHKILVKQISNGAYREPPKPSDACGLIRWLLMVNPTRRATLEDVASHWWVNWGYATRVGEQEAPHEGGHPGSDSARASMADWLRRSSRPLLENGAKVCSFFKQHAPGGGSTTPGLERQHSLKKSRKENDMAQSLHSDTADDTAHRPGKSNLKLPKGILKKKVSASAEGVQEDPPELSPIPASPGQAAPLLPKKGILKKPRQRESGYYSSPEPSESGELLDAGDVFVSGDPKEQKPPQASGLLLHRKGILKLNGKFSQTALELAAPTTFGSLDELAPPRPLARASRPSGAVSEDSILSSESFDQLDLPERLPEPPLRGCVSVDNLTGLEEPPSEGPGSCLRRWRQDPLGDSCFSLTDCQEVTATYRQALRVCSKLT

The target in one assay is NUAK1(h) enzyme (Homo sapiens, UniProt O60285). Kind of assay: In vitro NUAK1 enzymatic assay (Eurofins Discovery, [γ-33P]-ATP filter assay). The assay is classed as biochemical. Conditions: read-out: IC50, inhibitory effect on NUAK1 enzyme activity; 45 μM ATP, 40 min, room temperature. As for the experimental part:
In Vitro Assay to Determine the Inhibitory Effect of Compounds in the Patent on NUAK1 Enzymatic Activity
The in vitro NUAK1 enzymatic assay was carried out at Eurofins Discovery to evaluate the inhibitory effect of the compounds presented in the invention. The assay protocol is as follow: the compound to be tested was mixed with NUAK1(h) enzyme and 300 μM […] substrate in 8 mM MOPS (pH 7.0) buffer containing 0.2 mM EDTA and incubated at room temperature. A Mg/ATP mixture containing 10 mM magnesium acetate and 45 μM [y-33P]-ATP was added to start the reaction. After incubation for 40 min at room temperature, the reaction was terminated by adding 0.5% phosphoric acid. Then, 10 μL of the reaction mix was spotted onto a P30 filter paper followed with four times of wash with 0.425% phosphoric acid solution (4 min each time), and one time wash with methanol. The filter paper was air-dried and counted in a liquid scintillation counter. The values obtained were plotted against the drug concentration and the IC50 was calculated.
Table 1 summarizes the inhibitory effect (IC50) of compounds tested on the NUAK1 enzyme activity in the present invention. ++++ indicates IC50≤10 nM; […]; ++ indicates 100 nM<IC50≤1 μM; + indicates IC50>1 μM.

A further assay addresses NUAK2(h) enzyme (Homo sapiens, UniProt Q9H093). Briefly: In vitro NUAK2 enzymatic assay (Eurofins Discovery, [γ-33P]-ATP filter assay). The assay is classed as biochemical. Conditions: read-out: IC50, inhibitory effect on NUAK2 enzyme activity; 45 μM ATP, 40 min, room temperature. As to the method: In Vitro Assay to Determine the Inhibitory Effect of Compounds in the Patent on NUAK2 Enzymatic Activity
The in vitro NUAK2 enzymatic assay was carried out at Eurofins Discovery to evaluate the inhibitory effect of the compounds presented in the invention. The assay protocol is as follow: the compound to be tested was mixed with NUAK2(h) enzyme and 300 […] substrate in 8 mM MOPS (pH 7.0) buffer containing 0.2 mM EDTA. A Mg/ATP mixture containing 10 mM magnesium acetate and 45 μM [γ-33P]-ATP was added to start the reaction. After incubation for 40 min at room temperature, the reaction was terminated by adding 0.5% phosphoric acid. Then 10 μL of the reaction mix was spotted onto a P30 filter paper. The filter paper was washed four times with 0.425% phosphoric acid with 4 min for each wash, and one time with methanol. The filter paper was air-dried and counted in a liquid scintillation counter. The values obtained were plotted against the drug concentration and the IC50 was calculated.
Table 1 summarizes the inhibitory effect (IC50) of compounds on the NUAK2 enzyme activity in the present invention. ++++ indicates IC50≤10 nM; +++ indicates 10 nM<IC50≤100 nM; ++ indicates 100 nM<IC50≤1 μM; + indicates IC50>1 μM.

In general, IC50 refers to the midpoint of a concentration-inhibition curve. As to `COc1cc(N2CCN(C)CC2)ccc1Nc1ncc2ncc(=O)n(C3CCCC3)c2n1`, the IC50 on NUAK1(h) enzyme is > 1 µM; on NUAK2(h) enzyme it was 0.1 to 1 µM.
